Measured values reported in patent US9487483B2, “Complement pathway modulators and uses thereof” (priority 2012, dated 2016).
Read-outs that look alike come from different tables or passages of the source.

By UniProt entry, the sequences of proteins in these tests, tags left out. Residues count along the entry.
UniProt P00746, 26-253: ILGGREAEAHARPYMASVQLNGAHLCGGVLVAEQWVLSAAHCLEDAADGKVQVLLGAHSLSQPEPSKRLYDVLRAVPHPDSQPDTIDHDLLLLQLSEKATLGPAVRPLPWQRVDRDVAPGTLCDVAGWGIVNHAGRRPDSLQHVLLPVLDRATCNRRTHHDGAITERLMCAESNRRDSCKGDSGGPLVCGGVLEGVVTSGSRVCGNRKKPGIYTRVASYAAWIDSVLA

Molecular target: Recombinant human factor D (Homo sapiens (Human), UniProt P00746)
Assay: biochemical
Format: biochemical
Settings: substrate Z-Lys-thiobenzyl, fluorescence readout
[1] = IC50, Factor D inhibition data using Method 1
[2] = Factor D inhibition data using Method 1, read-out: IC50

Row | Compound | IC50 [1] [nM] | IC50 [2] [nM]
1 | CC(=O)c1nn(CC(=O)N2[C@@H]3C[C@@H]3C[C@H]2C(=O)NC2CCCCC2(F)F)c2ccc(OCc3ncccn3)cc12 (single isomer, unassigned) [Example 36] | 734 | –
2 | CC1CCC(NC(=O)[C@@H]2C[C@H]3C[C@H]3N2C(=O)Cn2nc(C(N)=O)c3ccccc32)C1 (single isomer, unassigned) [Example 80] | 469 | –
3 | NC(=O)n1cc(NC(=O)N2[C@@H]3C[C@@H]3C[C@H]2C(=O)NC2CCCC(OCC(F)(F)F)C2)c2ccccc21 (single isomer, unassigned) [Example 19] | 790 | –
4 | CC(=O)c1nn(CC(=O)N2[C@@H]3C[C@@H]3C[C@H]2C(=O)NC2CCCCC2(F)F)c2ccc(OCc3ncccn3)cc12 (single isomer, unassigned) [Example 37] | 24 | –
5 | CO[C@@H]1CC[C@@H](NC(=O)[C@@H]2C[C@H]3C[C@H]3N2C(=O)Cn2nc(C(C)=O)c3cc(OCc4ncccn4)ccc32)C1 [Example 99, (1R,3S,5R)-2-{2-[3-Acetyl-5-(pyrimidin-2-ylmethoxy)-indazol-1-yl]-acetyl}-2-aza-bicyclo[3.1.0]hexane-3-carboxylic acid ((1R,3R)-3-methoxy-cyclopentyl)-amide] | – | 432
6 | CO[C@H]1CC[C@H](NC(=O)[C@@H]2C[C@H]3C[C@H]3N2C(=O)Cn2nc(C(C)=O)c3cc(OCc4ncccn4)ccc32)C1 [Example 100, (1R,3S,5R)-2-{2-[3-Acetyl-5-(pyrimidin-2-ylmethoxy)-indazol-1-yl]-acetyl}-2-aza-bicyclo[3.1.0]hexane-3-carboxylic acid ((1S,3S)-3-methoxy-cyclopentyl)-amide] | – | 942
7 | CC1CCC(NC(=O)[C@@H]2C[C@H]3C[C@H]3N2C(=O)Cn2nc(C(N)=O)c3ccccc32)C1 (single isomer, unassigned) [Example 78] | 105 | –
8 | NC(=O)n1cc(NC(=O)N2[C@@H]3C[C@@H]3C[C@H]2C(=O)NC2CCCC(OCC(F)(F)F)C2)c2ccccc21 (single isomer, unassigned) [Example 18] | 1700 | –
9 | NC(=O)n1cc(NC(=O)N2[C@@H]3C[C@@H]3C[C@H]2C(=O)NC2CCCC(OCC(F)(F)F)C2)c2ccccc21 (single isomer, unassigned) [Example 17] | 691 | –
10 | NC(=O)n1cc(NC(=O)N2[C@@H]3C[C@@H]3C[C@H]2C(=O)NC2CCCC(OCC(F)(F)F)C2)c2ccccc21 (single isomer, unassigned) [Example 20] | 1230 | –
11 | CC1CCC(NC(=O)[C@@H]2C[C@H]3C[C@H]3N2C(=O)Cn2nc(C(N)=O)c3ccccc32)C1 (single isomer, unassigned) [Example 77] | 254 | –
12 | CC1CCC(NC(=O)[C@@H]2C[C@H]3C[C@H]3N2C(=O)Cn2nc(C(N)=O)c3ccccc32)C1 (single isomer, unassigned) [Example 79] | 2410 | –
